Molecular target: Mouse brain MAGL (Mus musculus (Mouse), UniProt O35678)
Test: Mouse brain proteomes from inhibitor treated mice (oral gavage, ABPP of brain MAGL)
Assay type: in vivo
Settings: 4 h following administration
Protocol: Preparation of Mouse Brain Proteomes from Inhibitor Treated Mice.
Inhibitors were administered to wild-type C57Bl/6J by oral gavage in a vehicle of polyethylene glycol.

Amino acid sequences for entries named in this document (tags omitted).
UniProt O35678, whole entry: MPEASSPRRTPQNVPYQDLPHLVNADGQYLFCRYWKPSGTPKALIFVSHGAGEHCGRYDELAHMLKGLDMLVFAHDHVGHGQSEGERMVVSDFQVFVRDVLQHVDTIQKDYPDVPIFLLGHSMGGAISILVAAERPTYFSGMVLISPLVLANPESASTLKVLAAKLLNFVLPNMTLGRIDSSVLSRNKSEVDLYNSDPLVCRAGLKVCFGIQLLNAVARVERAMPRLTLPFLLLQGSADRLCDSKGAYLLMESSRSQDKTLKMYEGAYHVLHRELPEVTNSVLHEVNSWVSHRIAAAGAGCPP

SMILES: O=C(OC(C(F)(F)F)C(F)(F)F)N1CCN(Cc2ccc(Br)cc2Oc2ccccc2)CC1 [Example 9b, 1,1,1,3,3,3-hexafluoropropan-2-yl 4-(4-bromo-2-phenoxybenzyl)piperazine-1-carboxylate]
- Mouse brain MAGL (% inhibition at 20 mg/kg, p.o.): >95%
